The target in this experiment is Angiotensin Converting Enzyme (Homo sapiens, UniProt P12821). Briefly: ACE inhibitory activity with Hippuryl-His-Leu substrate, absorbance at 228 nm. It is filed as biochemical. The settings on record: synthetic peptide, 0.1 M borate buffer pH 8.3, 37° C., 60 minutes; Table 1. As to the method:
Each of the peptides of SEQ ID NOs:1 to 7 was synthesized using an automatic peptide synthesizer. It was confirmed by reverse phase HPLC that the purity of each of the thus obtained peptides is 95%. Each of these synthetic peptides was dissolved in 0.1 M borate buffer (pH 8.3). Subsequently, 0.1 ml of an enzyme solution (Angiotensin Converting Enzyme: 2 units/ml) and 0.04 ml of each of the sample solutions were mixed therewith, followed by heating to 37° C. A 0.1 ml portion of a substrate solution (Hippuryl-His-Leu; N-Benzoyl-Gly-His-Leu) was added thereto, followed by thorough stirring. After allowing the mixture to react at 37° C. for 60 minutes, the reaction was stopped by adding 0.13 ml of 1 N hydrochloric acid. […] The residual matters were dissolved by adding 0.5 ml of distilled water, and the absorbance at a wavelength of 228 nm was measured.
The activity of inhibiting ACE (%) was calculated by the following mathematical expression 1. […]
In this connection, A in the expression is absorbance of the control when the enzyme is used, B is the absorbance of the control when the enzyme is not used, C is absorbance of the sample when the enzyme is used, and D is absorbance of the sample when the enzyme is not used. […]
Based on the thus obtained ACE inhibitory activities, IC50 of each peptide was calculated. […]

Sequences of proteins named here, by UniProt entry; tags and fusion partners are left off. Residues count along the entry.
UniProt P12821, 30-1306, species assumed: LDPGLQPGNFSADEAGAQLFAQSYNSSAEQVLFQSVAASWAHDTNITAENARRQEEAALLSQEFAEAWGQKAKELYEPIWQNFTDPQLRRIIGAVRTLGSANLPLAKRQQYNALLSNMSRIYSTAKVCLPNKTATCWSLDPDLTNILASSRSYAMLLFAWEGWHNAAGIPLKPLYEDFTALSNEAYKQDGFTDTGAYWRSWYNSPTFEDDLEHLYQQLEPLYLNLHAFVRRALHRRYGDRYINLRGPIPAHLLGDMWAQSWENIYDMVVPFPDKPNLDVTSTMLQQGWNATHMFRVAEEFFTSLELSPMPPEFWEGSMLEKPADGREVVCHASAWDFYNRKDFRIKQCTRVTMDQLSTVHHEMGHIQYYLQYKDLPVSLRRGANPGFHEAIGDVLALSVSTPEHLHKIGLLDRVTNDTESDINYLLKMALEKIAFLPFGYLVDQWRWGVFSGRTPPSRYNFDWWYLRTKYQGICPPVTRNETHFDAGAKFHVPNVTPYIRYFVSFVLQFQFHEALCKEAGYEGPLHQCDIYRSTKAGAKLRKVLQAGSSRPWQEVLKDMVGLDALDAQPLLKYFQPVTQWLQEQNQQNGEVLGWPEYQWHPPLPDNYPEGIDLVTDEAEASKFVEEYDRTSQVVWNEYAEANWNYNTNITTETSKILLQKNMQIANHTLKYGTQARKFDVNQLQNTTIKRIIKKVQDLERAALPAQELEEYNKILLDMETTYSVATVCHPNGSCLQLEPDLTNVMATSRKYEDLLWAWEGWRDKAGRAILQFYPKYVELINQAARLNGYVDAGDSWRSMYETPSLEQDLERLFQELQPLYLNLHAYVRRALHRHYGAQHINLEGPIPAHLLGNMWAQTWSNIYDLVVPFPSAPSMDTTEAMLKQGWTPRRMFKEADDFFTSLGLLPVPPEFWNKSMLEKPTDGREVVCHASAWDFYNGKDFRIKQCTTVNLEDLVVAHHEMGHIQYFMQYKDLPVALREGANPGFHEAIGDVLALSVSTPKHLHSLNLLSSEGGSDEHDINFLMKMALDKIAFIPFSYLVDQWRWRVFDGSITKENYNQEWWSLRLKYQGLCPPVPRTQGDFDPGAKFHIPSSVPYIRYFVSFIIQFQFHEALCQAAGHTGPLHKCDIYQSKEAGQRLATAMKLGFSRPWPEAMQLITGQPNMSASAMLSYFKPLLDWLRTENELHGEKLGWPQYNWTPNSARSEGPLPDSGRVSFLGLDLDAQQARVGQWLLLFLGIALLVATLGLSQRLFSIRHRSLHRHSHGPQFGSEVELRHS

Usually IC50 stands for the point on the concentration scale where inhibition reaches its midpoint. Low readings indicate inhibition by little substance, high ones a need for much substance. `CSCC[C@H](N)C(=O)N[C@@H](C)C(=O)N1CCC[C@H]1C(=O)O` [Met-Ala-Pro] returned an IC50 of 800 nM. That is a sub-micromolar value.

The record behind these values is patent publication US8637463B2, “Peptide inhibiting angiotensin converting enzyme” (Meiji Dairies Corporation, priority 2003, dated 2014).
